Two molecules from US7863416B2, “Nociceptin-based analgesics” (Synvax, Inc., priority 2001, dated 2011) can be followed below.

Protein sequences, listed by entry. Tags and fused reporters are not part of them. Lines headed by an entry give the natural chain unless they say otherwise; changes in a name come on top.
UniProt P41146: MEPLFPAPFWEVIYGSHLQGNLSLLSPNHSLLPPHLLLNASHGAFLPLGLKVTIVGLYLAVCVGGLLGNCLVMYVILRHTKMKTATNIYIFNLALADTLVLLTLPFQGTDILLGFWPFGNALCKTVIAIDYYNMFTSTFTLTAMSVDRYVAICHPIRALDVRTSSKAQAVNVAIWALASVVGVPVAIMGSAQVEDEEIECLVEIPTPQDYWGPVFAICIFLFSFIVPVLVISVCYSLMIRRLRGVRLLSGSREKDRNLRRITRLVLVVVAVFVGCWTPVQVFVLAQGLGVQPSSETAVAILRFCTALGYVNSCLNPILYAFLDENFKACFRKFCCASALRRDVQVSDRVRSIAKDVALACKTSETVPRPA

The experiment has as its target T1, human ORL1 (Homo sapiens, UniProt P41146).
T1 construct: expressed in transfected cells; host or cells: CHO cells (G418-selected)
Description: [3H]nociceptin binding to membranes of CHO cells transfected with human ORL1. To be noted: Table 5; Ki=IC50/(1+[L]/Kd), at least two experiments in triplicate; read-out: Ki ± SEM.

Square brackets hold non-standard residues; d marks the D form. Peptide text beside a SMILES is read from it. Phe(4-SO3H) = N[C@@H](Cc1ccc(S(=O)(=O)O)cc1)C(=O)O; Phe(4-COOH) = N[C@@H](Cc1ccc(C(=O)O)cc1)C(=O)O Some results are limits rather than exact numbers.

Broadly, the Ki is a measure of affinity in units of concentration, obtained from inhibition or displacement. For `CC(=O)N[C@@H](CCCNC(=N)N)C(=O)N[C@@H](Cc1ccc(S(=O)(=O)O)cc1)C(=O)N[C@@H](Cc1ccc(O)cc1)C(=O)N[C@@H](CCCNC(=N)N)C(=O)N[C@@H](Cc1c[nH]c2ccccc12)C(=O)N[C@@H](CCCNC(=N)N)C(N)=O` [VII-29-B, Ac-Arg-Phe(4-SO3H)-Tyr-Arg-Trp-Arg-NH2] (Ac-R[Phe(4-SO3H)]YRWR-NH2), the Ki is above 10 µM.

Regarding “Ac-Arg-Phe(4-COOH)-Phe(COOH)-Arg-Trp-Arg-NH2 (Ac-R[Phe(4-COOH)][Phe(COOH)]RWR-NH2) [VII-21-C]”, the inhibition constant (Ki) is above 10 µM.
